For 75 compounds, inhibition results are on record in PubChem BioAssay AID588354 (The Scripps Research Institute Molecular Screening Center, 2011).

The chains behind the UniProt entries cited, without tags or fusion partners.
UniProt Q15788, whole entry: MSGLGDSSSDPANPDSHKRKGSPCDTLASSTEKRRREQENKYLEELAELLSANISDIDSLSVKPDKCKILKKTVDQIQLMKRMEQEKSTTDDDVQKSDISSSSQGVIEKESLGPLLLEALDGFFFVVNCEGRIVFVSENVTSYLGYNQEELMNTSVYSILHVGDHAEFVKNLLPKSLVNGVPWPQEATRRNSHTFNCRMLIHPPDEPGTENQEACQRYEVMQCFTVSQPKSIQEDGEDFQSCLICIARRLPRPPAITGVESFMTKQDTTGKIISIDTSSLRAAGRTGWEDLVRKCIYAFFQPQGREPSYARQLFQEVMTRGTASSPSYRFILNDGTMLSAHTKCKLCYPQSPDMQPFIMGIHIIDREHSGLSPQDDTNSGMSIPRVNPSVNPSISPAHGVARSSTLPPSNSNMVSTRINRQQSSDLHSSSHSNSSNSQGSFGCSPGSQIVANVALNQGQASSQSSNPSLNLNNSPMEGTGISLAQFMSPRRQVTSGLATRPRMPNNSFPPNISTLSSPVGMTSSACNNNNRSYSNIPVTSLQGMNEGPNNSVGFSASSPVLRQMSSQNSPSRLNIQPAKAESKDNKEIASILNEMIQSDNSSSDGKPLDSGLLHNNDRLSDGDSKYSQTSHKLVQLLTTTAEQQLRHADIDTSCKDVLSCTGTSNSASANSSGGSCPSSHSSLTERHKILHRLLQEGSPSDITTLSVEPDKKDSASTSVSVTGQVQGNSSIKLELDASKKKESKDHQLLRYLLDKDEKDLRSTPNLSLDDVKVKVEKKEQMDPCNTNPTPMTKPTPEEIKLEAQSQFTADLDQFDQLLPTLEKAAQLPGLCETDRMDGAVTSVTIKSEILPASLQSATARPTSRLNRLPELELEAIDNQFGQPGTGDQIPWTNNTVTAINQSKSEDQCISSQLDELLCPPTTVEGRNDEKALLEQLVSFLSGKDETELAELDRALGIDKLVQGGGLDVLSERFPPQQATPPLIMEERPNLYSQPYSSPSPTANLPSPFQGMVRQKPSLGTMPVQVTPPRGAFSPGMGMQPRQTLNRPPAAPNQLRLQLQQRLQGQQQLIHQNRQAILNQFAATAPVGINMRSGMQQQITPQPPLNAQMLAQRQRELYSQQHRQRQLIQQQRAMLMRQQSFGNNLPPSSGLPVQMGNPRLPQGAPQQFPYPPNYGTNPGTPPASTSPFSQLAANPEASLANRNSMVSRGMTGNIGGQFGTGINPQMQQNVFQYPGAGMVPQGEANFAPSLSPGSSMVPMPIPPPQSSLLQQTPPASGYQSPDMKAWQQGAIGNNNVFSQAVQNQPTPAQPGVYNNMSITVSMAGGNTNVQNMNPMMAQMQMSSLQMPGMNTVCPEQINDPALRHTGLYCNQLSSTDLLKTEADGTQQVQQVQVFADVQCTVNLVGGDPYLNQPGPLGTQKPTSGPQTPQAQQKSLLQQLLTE

Only a part is listed here, and it is no random draw. Some salts or complexes appear as unconnected parts, following the source record. Active and inactive are the calls of the source.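 How the source made its calls: active means inhibition above the campaign mean plus 3 SD, with each screening campaign given its own cutoff (cut at about 60% in these data); inactive means the rest.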

Broadly, the inhibition is the change of the read-out against control, counted positive when it falls.

This assay has as its target Nuclear receptor coactivator 1 (Homo sapiens) (UniProt Q15788). In words: NCOA1 GAL4-fusion reporter inhibition – cell-based, luminescence, primary screen (AID 588354).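 Further: 0% = DMSO treated cells and 100% = gossypol at 36 µM.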 The conditions noted are these: HEK293 GAL4-SRC1 luciferase reporter, at 3.6 µM, active compounds read high.
`CC(C)(C)c1ccc(OP(C)(=O)Nc2ccc(SC(F)(F)F)cc2)cc1` (stereo not given): the inhibition was inactive: 2.6%. Turning to `O=[N+]([O-])c1ccc2c(c1)C=Nc1ccccc1O2`, the inhibition was inactive: 2.88%. As for `O=[N+]([O-])c1cc([N+](=O)[O-])c(Nc2cccnc2)c([N+](=O)[O-])c1`, the inhibition was inactive: -7.26%. As for `COc1ccc(OP(C)(=O)Nc2cccc(F)c2)cc1` (stereo not given), the figure is inactive: 3.28%; as for `COc1ccccc1OP(C)(=O)Nc1cc(Cl)ccc1C` (stereo not given), inactive: 4.78%; as for `Cc1cc(C)cc(OP(C)(N)=O)c1` (stereo not given), inactive: -7.43%. As for `CCOC(=O)c1ccc(NP(C)(=O)Oc2ccccc2)cc1` (stereo not given), the figure is inactive: -13.2%.

As to `Cc1ccc(NP(C)(=O)Oc2ccccc2)c(C)c1` (stereo not given), the inhibition was inactive: -33.2%. To `COc1ccccc1OP(C)(=O)Nc1ccc(C)cc1` (stereo not given) belongs inactive: 1.39%; to `CCN(CC)CCCOC(=O)C(O)(c1ccccc1)c1ccccc1`, inactive: 7.9%; to `Cc1cc(C)cc(OP(C)(=O)Nc2ccc(SC(F)(F)F)cc2)c1` (stereo not given), inactive: 10.5%.

Regarding `CP(=O)(NC(=O)Nc1ccccc1)Oc1ccccc1` (stereo not given), the inhibition was inactive: 6.55%. To `CCc1ccc(OP(C)(=O)N2CCN(c3ccc([N+](=O)[O-])cc3)CC2)cc1` (stereo not given) belongs inactive: 3.83%; to `CP(=O)(Oc1ccccc1)OC(c1ccccc1)C(F)(F)F` (stereo not given), inactive: -8.58%. As for `Cc1cccc(C)c1OP(C)(=O)Nc1ccc(SC(F)(F)F)cc1` (stereo not given), the figure is inactive: -13.3%; as for `Cc1ccc(Nc2c([N+](=O)[O-])cc([N+](=O)[O-])cc2[N+](=O)[O-])cc1`, inactive: -4.18%.

Consider `CP(=O)(Nc1ccc(SC(F)(F)F)cc1)Oc1ccc(Cl)cc1` (stereo not given), for which the inhibition is inactive: -2.04%. As for `CP(=O)(Nc1ccccn1)Oc1ccc(Cl)cc1` (stereo not given), the figure is inactive: 5.13%.

In the case of `CCOP(C)(=S)SCC(=O)NC(C)C(=O)O` (stereo not given), the inhibition was inactive: -13.7%.

For `CCOC(=O)c1ccc(NP(C)(=O)Oc2ccc(OC)cc2)cc1` (stereo not given), the inhibition was inactive: 7.81%. For `O=[N+]([O-])c1cc([N+](=O)[O-])c(O)c([N+](=O)[O-])c1.c1ccc(Oc2ccncc2)cc1`, the inhibition was inactive: -3.86%. Consider `COc1ccccc1OP(C)(=O)Nc1ccccc1` (stereo not given), for which the inhibition was inactive: 8.13%.

As for `CP(=O)(Nc1ccccc1Br)Oc1ccccc1` (stereo not given), the inhibition is inactive: -7.98%.

Regarding `CP(=S)(Nn1cnnc1)Oc1ccccc1` (stereo not given), the inhibition is inactive: -13.3%.

As for `CP(=O)(OC12CC3CC(CC(C3)C1)C2)OC12CC3CC(CC(C3)C1)C2`, the inhibition is inactive: 0.24%. Regarding `CCOC(=O)c1ccc(NP(C)(=O)Oc2ccc(Cl)cc2)cc1` (stereo not given), the inhibition is inactive: -18.1%. `CCc1ccc(OP(C)(=O)Nc2cccnc2)cc1` (stereo not given): the inhibition is inactive: -41.6%. Regarding `CP(=O)(Oc1ccccc1)N1CCOC1=O` (stereo not given), the inhibition is inactive: -4.3%.

In the case of `O=C(OCCCN1CCCC1)C(O)(c1ccccc1)C1CCCCC1` (stereo not given), the inhibition was inactive: 2.69%. Consider `COc1ccccc1OP(C)(=O)Nc1c(C)n(C)n(-c2ccccc2)c1=O` (stereo not given), for which the inhibition was inactive: -4.83%. To `COc1ccc(OP(C)(=O)Nc2ccc(Br)cc2)cc1` (stereo not given) belongs inactive: -10.8%; to `CCN(CC)CC(O)COC(=O)C(O)(c1ccccc1)C1CCCCC1` (stereo not given), inactive: 3.77%; to `CN(C)C(=O)c1c([N+](=O)[O-])cc([N+](=O)[O-])cc1[N+](=O)[O-]`, inactive: -5.76%. For the compound `CP(=O)(Nc1ccc(Cl)cc1)Oc1ccc(F)cc1` (stereo not given), the inhibition was inactive: -11.2%. In the case of `COc1ccccc1OP(C)(=O)Nc1ccccc1Br` (stereo not given), the inhibition is inactive: -20.1%. As for `CC(C)(C)c1ccc(OP(C)(=O)O)cc1`, the figure is inactive: 5.99%; as for `CN(C)CCOC(=O)C(O)(c1ccccc1)C1CCCC1` (stereo not given), inactive: -7.5%. As to `COc1ccc(OP(C)(=O)Nc2ccccn2)cc1` (stereo not given), the inhibition is inactive: 12.1%. For the compound `COc1ccccc1OP(C)(=O)Nc1ccc(Br)cc1` (stereo not given), the inhibition was inactive: 5%. For the compound `CCc1ccc(OP(C)(=O)O)cc1`, the inhibition is inactive: 3.3%.

For the compound `COc1ccccc1OP(C)(=O)Nc1ccc(C)cc1C` (stereo not given), the inhibition was inactive: 5.91%. In the case of `CP(=O)(Nc1ccccn1)Oc1ccccc1` (stereo not given), the inhibition is inactive: -11.9%.

As to `Cc1c(NP(C)(=O)Oc2ccc(C(C)C)cc2)c(=O)n(-c2ccccc2)n1C` (stereo not given), the inhibition is inactive: -20.8%. As for `O=[N+]([O-])c1cc([N+](=O)[O-])c(Nc2ccccn2)c([N+](=O)[O-])c1`, the figure is inactive: -29.9%; as for `COc1ccc(OP(C)(=O)Nc2ccccc2Br)cc1` (stereo not given), inactive: 10.3%; as for `COc1ccccc1OP(C)(=O)Nc1ccc(C)c(C)c1` (stereo not given), inactive: 3.58%.

In the case of `Cc1cc(C)cc(OP(C)(=O)Nc2cccc(C(F)(F)F)c2)c1` (stereo not given), the inhibition is inactive: -1.89%.

Take `O=C1C(O)=C([N+](=O)[O-])C(=O)C(O)=C1[N+](=O)[O-]`: the inhibition is inactive: -12.1%. As for `CP(=O)(Nc1ccc(Cl)cc1Cl)Oc1ccccc1` (stereo not given), the figure is inactive: 5.26%; as for `CCCCCCCCCCCCCCCC1C[N+](C)(C)CCOP(C)(=O)O1` (stereo not given), inactive: -5.62%; as for `CP(=O)(OCCOc1ccccc1)OCCOc1ccccc1`, inactive: 2.77%. As for `COc1ccc(OP(C)(=O)Nc2ccc(SC(F)(F)F)cc2)cc1` (stereo not given), the figure is inactive: -3.76%; as for `CCOC(=O)c1ccc(NP(C)(=O)Oc2ccc(F)cc2)cc1` (stereo not given), inactive: -2.7%. `O=[N+]([O-])c1cc([N+](=O)[O-])c(OC2CCCCC2O)c([N+](=O)[O-])c1` (stereo not given): the inhibition is inactive: 10.9%. As for `CCCCCOc1ccc(NP(C)(=O)Oc2ccc(Cl)cc2Cl)cc1` (stereo not given), the figure is inactive: 11%. As for `CP(=O)(Nc1ccccc1)Oc1ccc(F)cc1` (stereo not given), the figure is inactive: -28.3%. On to `CCN(CC)CCCOC(=O)C(O)(c1ccccc1)C1CCCCC1` (stereo not given), for which the inhibition was inactive: 6.76%. Turning to `Cc1c([N+](=O)[O-])cc([N+](=O)[O-])c(Br)c1[N+](=O)[O-]`, the inhibition was inactive: -4.26%. As for `CC(C)c1ccc(OP(C)(=O)Nc2ccc(SC(F)(F)F)cc2)cc1` (stereo not given), the figure is inactive: -4.44%. To `CP(=O)(Nc1ccccc1F)Oc1ccccc1` (stereo not given) belongs inactive: -26.1%; to `O=[N+]([O-])c1cc([N+](=O)[O-])c(Nc2ccc(Cl)cc2)c([N+](=O)[O-])c1`, inactive: -22.1%; to `COc1ccc2c(c1O)-c1c(O)c(OC)cc3c1[C@H](C2)[N+](C)(C)CC3.O=[N+]([O-])c1cc([N+](=O)[O-])c([O-])c([N+](=O)[O-])c1[O-]`, inactive: -2.76%. Take `O=C(OCCN1CCN(CCOCc2ccccc2)CC1)C(O)(c1ccccc1)c1ccccc1`: the inhibition is inactive: 3.54%. As for `O=C(OC1CN2CCC1CC2)c1ccc([N+](=O)[O-])cc1` (stereo not given), the figure is inactive: -28.3%; as for `CCOP(C)(=S)SCC(=O)NC(C)(CC)C(=O)O` (stereo not given), inactive: 0.18%; as for `CP(=O)(Nc1ccc(SC(F)(F)F)cc1)Oc1ccc(F)cc1` (stereo not given), inactive: -5.12%. To `Cc1ccccc1NP(C)(=O)Nc1ccccc1C` belongs inactive: -20.6%. As to `CP(=O)(Nc1ccc2c(c1)OCCO2)Oc1ccccc1` (stereo not given), the inhibition is inactive: -13.9%. As for `COc1ccc(NP(C)(=O)Oc2ccccc2OC)cc1` (stereo not given), the figure is inactive: -15.5%. With `CN(C)CCOC(=O)C(O)(c1ccccc1)C1CCCCC1` (stereo not given), the inhibition was inactive: 1.02%. To `COc1ccc(OP(C)(=O)Nc2cccc(Br)c2)cc1` (stereo not given) belongs inactive: 2.21%. To `Cc1c(C(c2ccc3c(c2)OCO3)c2c(C)n(C)n(-c3ccccc3)c2=O)c(=O)n(-c2ccccc2)n1C.O=[N+]([O-])c1cc([N+](=O)[O-])c(O)c([N+](=O)[O-])c1` belongs inactive: -2.72%. As for `O=[N+]([O-])c1cc([N+](=O)[O-])c(NCC2CCS(=O)(=O)C2)c([N+](=O)[O-])c1` (stereo not given), the figure is inactive: -8.51%; as for `Cc1cc(-c2cccc3ccccc23)c(C)cn1.O=[N+]([O-])c1cc([N+](=O)[O-])c(O)c([N+](=O)[O-])c1`, inactive: -10.9%. On to `O=[N+]([O-])c1ccc(OP2(=O)COCCO2)cc1` (stereo not given), for which the inhibition is inactive: -25.6%.
